{"source": "paper PMC8765435", "about": "“In Vitro Antimalarial Activity of Inhibitors of the Human GTPase Rac1” (Antimicrobial Agents and Chemotherapy, 2022)", "key": {"[1]": {"tested_on": "P. falciparum asexual parasites, chloroquine-resistant W2 strain", "conditions": "72 h", "experimental": "(§1) Chloroquine (CQ)-sensitive (D10, wild-type 3D7, or transgenic 3D7elo1-pfs16-CBG99) and CQ-resistant (W2) strains of P. falciparum were cultured as described previously ([58]), with slight modifications, as detailed in the supplemental material.\n(§2) Asexual parasite growth was determined spectrophotometrically (optical density at 650 nm [OD650]) by measuring the activity of parasite lactate dehydrogenase (pLDH), according to a modified version of the method of Makler et al. ([59]). Gametocyte viability was measured by a luminescence method described previously ([60]). Details for the two methods are reported in the supplemental material. From either the OD or ALU (arbitrary luminescence units), the percentages of viability were calculated according to the formula 100 × (treated sample signal − blank signal)/(untreated control signal − blank signal). The blank for the pLDH assay was uninfected RBCs at the same hematocrit as that of parasitized RBCs, and the blank for the luminescence assay was parasites treated with a high dose of methylene blue. […]\n(§3) The CQ-sensitive (D10) and the CQ-resistant (W2) strains were maintained at 5% hematocrit […]\n(§4) supplemented with 1% AlbuMaxII (lipid-rich bovine serum albumin) (Invitrogen), 0.01% hypoxantine (Sigma), 20mM Hepes (EuroClone), 2 mM glutamine (EuroClone). […]\n(§5) In vitro P. falciparum drug susceptibility assay […]\n(§6) plate were transferred to a plate containing 100µl of Malstat reagent (0.11% [vol/vol] Triton- […]\n(§7) dinucleotide [APAD] [Sigma-Aldrich], adjusted to pH 9 with 1 M HCl) and 25 µl of PES/NBT […]\n(§8) pLDHassay. The plate was read at a wavelength of 650 nm using a microplate reader, Synergy4 […]\n(§9) Uninfected RBC at the same HCT than parasites were used as blank. […]"}, "[2]": {"tested_on": "P. falciparum asexual parasites, chloroquine-sensitive D10 strain", "experimental": "as §1, §2, §3, §4, §5, §6, §7, §8, §9"}, "Rac-GEF interaction": {"tested_on": "Rac-GEF interaction", "parameters": "method as in PMID 11595749", "conditions": "Rac-GEF interaction in vitro; cited from earlier work"}}, "note": "pIC50: −log10 of the molar value.", "data": [{"smiles": "CSCC[C@H](N)C(=O)N[C@H](C(=O)N[C@@H](CC(=O)O)C(=O)NCC(=O)N[C@@H](CCCCN)C(=O)N1CCC[C@H]1C(=O)N[C@H](C(=O)N[C@@H](CC(N)=O)C(=O)N[C@@H](CC(C)C)C(=O)NCC(=O)N[C@@H](CC(C)C)C(=O)N[C@@H](Cc1c[nH]c2ccccc12)C(=O)N[C@@H](CC(=O)O)C(=O)N[C@H](C(=O)N[C@@H](C)C(=O)NCC(=O)O)[C@@H](C)O)C(C)C)C(C)C", "note": "[Compound W56]", "values": [{"measurement": "pIC50", "setting": "[1]", "result": "< 4.30"}, {"measurement": "antimalarial activity (in words)", "setting": "[2]; asexual and sexual P. falciparum parasites", "result": "no effect"}, {"measurement": "pIC50", "setting": "[2]; asexual parasites, chloroquine-sensitive D10 strain, 72 h", "result": "< 4.30"}, {"measurement": "pIC50", "setting": "Rac-GEF interaction", "result": "3.82 to 4.00"}]}]}
